Experimental findings from patent publication US10196357B2, “Biaryl compositions and methods for modulating a kinase cascade” (Athenex, Inc., priority 2007, dated 2019) are described below.

The assay deals with WRL-68. The experiment in a line: MTT growth inhibition, WRL-68. Format: cell-based. Particulars: Homo sapiens, WRL68, 78 h. The protocol: Samples of the test compounds were formulated in 100% DMSO to obtain 20 mM stock solutions; stored @ 4° C. The IC50s and IC80s were determined as described below. Huh7, WRL-68, PLC/PRF/5, Hep 3B, and Hep G2 human cancer lines were routinely cultured and maintained in a basal medium containing 2% FBS @ 37° C., 5% CO2. […] The assay medium was basal medium/1.5% FBS. Cells were cultured overnight in 96-well plates at 37° C., 5% CO2 prior to KX2-391. MSA and Dasatinib addition. […] 10 μL of 20× dilutions were added to the appropriate wells (n=3) containing 190 μL cancer cell line; 6561 nM to 0.012 nM range of final concentrations. Vehicle control contained cells, no sample. Medium control contained cells, no sample, 0.03% DMSO (highest DMSO concentration present in samples). […] On day 3, 10 μL MTT (5 mg/mL) were added to each well. Cells were incubated in the presence of MTT for 4 hours @ 37° C., 5% CO2. […] Cells were then incubated overnight @ 37°, 5% CO2. OD570 measurements were taken using BioTek Synergy HT multiplatform microplate reader. Growth inhibition curves IC50s and IC80s were determined using GraphPad Prism 5 statistical software.

Structures are written as SMILES.

As usually defined, the IC50 is the concentration that gives 50% inhibition. Consider `Cc1nc(Nc2ncc(C(=O)Nc3c(C)cccc3Cl)s2)cc(N2CCN(CCO)CC2)n1` [Dasatinib, reference compound], for which the IC50 worked out at 5.65 µM.
